# Values quoted from earlier work in patent US20140330223A1.
# Conditions: Roy et al., J Pharm Sci 85(5), 1996, 491-495
smiles,measurement,value
CCC(=O)N(c1ccccc1)C1CCN(CCc2ccccc2)CC1,concentration of fentanyl in the polyisobutylene matrix at which active ingredient is precipitating,more than 4%

# Some compounds may have been tested in ways that are not shown here.
